The text below walks through data of US20250041310A1, “Combination Therapy Comprising A2A/A2B and PD-1/PD-L1 Inhibitors” (Incyte Corporation, priority 2020, published 2025).

Test [1] deals with primary T cells co-cultured with CHO-PD-L1 cells. Conditions: NECA, together with an anti-PD1 reagent. How it is done: In vitro the CHO-PD-L1 co-culture assay, T cells were treated in the presence of 20 CHO-PD-L1 cells with PD-1 antibody, and using 5′-N-ethylcarboxamide adenosine (NECA), an adenosine-mimicking reagent, to activate adenosine signaling.
Day 0, plate 10,000 CHO PDL1+ cells in Plate 96 Tissue Culture Flat Bottom plate in 100 ul of CHO Media without antibiotics. On day 1, T Cells were thawed and resuspended in T cell media at 1×10^6 cells/ml. Media was removed from the CHO PDL1+ cells plates and 130 ul of T cell media was added. T cell media at 198 ul was added onto the compound plates at 2 ul, or −1:100 dilution and then re-suspended. 20 ul of compounds from the compound plates were added onto the CHO cell plates at a final dilution of compounds at 1:1000. 50 ul of T cells (50,000 cells) were added onto the plates with CHO cells to make a total of 200 ul volume and incubation was carried out at 37° C. for 72 hrs. After 3 days in culture, the supernatant was collected for an hIFNg and hIL2 cytokine assay run using ProCartaplex 2 plex kits (Life Technologies Cat #PPX-02) for hIFNg and hIL2 (Manufacturer's Protocol). The cytokine assay using ProCartaplex kits are run on a Flex Map 3D Luminex multiplexing platform.

For test [2], the system named is CT-26 murine colon carcinoma. Conditions: CT-26 syngeneic.
In test [3] the test system is B16 melanoma. The experiment in a line: In vivo efficacy study, B16 syngeneic melanoma model. Details: species or system mouse. The source says:
Compound 9 was further evaluated in the B16 melanoma model, an immunologically cold model, for its ability to break immune checkpoint resistance.

With `Cn1nc(-c2c(-c3cccc(C#N)c3)nc(N)c3nc(Cc4ccccn4)nn23)ccc1=O` [Compound 9, 3-(8-Amino-5-(1-methyl-6-oxo-1,6-dihydropyridazin-3-yl)-2-(pyridin-2-ylmethyl)-[1,2,4]triazolo[1,5-a]pyrazin-6-yl)benzonitrile], the T cell function result in test [1] is given as “restore the T cell function”. For the same compound, the “tumor growth inhibition (TGI) relative to vehicle” value in test [2] (10 mg/kg BID in combination with an anti-PD-1 antibody) was 77%. The “tumor growth inhibition (TGI) relative to the vehicle control” value in test [2] (single agent, 10 mg/kg BID) is 52%. The single-agent activity entry in test [3] is listed as “modest but insignificant single-agent activity”.
